According to patent publication US20140120036A1, “RADIOLABELED 5-HT6 LIGANDS” (AbbVie Inc., priority 2012, published 2014):

Assay: Brain regional distribution of [3H]compound relative to cerebellum

## 1-(5-(3-(difluoromethoxy)phenylsulfonyl)-2-methoxyphenyl)-4-([^3H]methyl)-piperazine [Example 3]
3 min after dose
  F.Cortex/Cer.: 2.8
40 min after dose
  F.Cortex/Cer.: 1.2
